One substance from article PMC9922763 can be followed below.

This assay deals with synthetic IAPP, used as monomer and as sonicated preformed fibrils (seeds) (UniProt P10997).

In turn, “recombinant alpha-synuclein (aSyn), used as monomer and as sonicated preformed fibrils (seeds) (from UniProt P37840 1-140) (natural protein)” showed a lag phase of ThT fibril formation of 2.5 µM monomeric IAPP after adding aSyn seeds corresponding to 500 nM monomeric peptide (240 min without seeds); PBS pH 7.4, 37°C of 80 min.
